{"source": "paper PMC11506018", "about": "“Targeting PARP-1 and DNA Damage Response Defects in Colorectal Cancer Chemotherapy with Established and Novel PARP Inhibitors” (Cancers, 2024)", "system": "HCT116 BRCA2−/− cells", "assay": "cell viability, resazurin reduction assay, HCT116 BRCA2-/-", "settings": "IT 0.25 µM, 5-FU 0.1 µM, OXA 0.25 µM, 72 h", "data": [{"compound": "C[C@]1(c2nc3c(C(N)=O)cccc3[nH]2)CCCN1", "note": "[Veliparib, veliparib]", "values": [{"measurement": "cell viability in combination with chemotherapeutics", "result": "increased the sensitivity to IT and OXA in a BRCA2-deficient background"}]}]}
